Measured values as given in patent US8575360B2, “Derivatives of 6,7-dihydro-5H-imidazo[1,2-a]imidazole-3-carboxylic acid amides” (Boehringer Ingelheim International GmbH, priority 2009, dated 2013).

Sequences of proteins named here, by UniProt entry; tags and fusion partners are left off. Residues count along the entry.
UniProt P20701, 26-1170 limits assumed: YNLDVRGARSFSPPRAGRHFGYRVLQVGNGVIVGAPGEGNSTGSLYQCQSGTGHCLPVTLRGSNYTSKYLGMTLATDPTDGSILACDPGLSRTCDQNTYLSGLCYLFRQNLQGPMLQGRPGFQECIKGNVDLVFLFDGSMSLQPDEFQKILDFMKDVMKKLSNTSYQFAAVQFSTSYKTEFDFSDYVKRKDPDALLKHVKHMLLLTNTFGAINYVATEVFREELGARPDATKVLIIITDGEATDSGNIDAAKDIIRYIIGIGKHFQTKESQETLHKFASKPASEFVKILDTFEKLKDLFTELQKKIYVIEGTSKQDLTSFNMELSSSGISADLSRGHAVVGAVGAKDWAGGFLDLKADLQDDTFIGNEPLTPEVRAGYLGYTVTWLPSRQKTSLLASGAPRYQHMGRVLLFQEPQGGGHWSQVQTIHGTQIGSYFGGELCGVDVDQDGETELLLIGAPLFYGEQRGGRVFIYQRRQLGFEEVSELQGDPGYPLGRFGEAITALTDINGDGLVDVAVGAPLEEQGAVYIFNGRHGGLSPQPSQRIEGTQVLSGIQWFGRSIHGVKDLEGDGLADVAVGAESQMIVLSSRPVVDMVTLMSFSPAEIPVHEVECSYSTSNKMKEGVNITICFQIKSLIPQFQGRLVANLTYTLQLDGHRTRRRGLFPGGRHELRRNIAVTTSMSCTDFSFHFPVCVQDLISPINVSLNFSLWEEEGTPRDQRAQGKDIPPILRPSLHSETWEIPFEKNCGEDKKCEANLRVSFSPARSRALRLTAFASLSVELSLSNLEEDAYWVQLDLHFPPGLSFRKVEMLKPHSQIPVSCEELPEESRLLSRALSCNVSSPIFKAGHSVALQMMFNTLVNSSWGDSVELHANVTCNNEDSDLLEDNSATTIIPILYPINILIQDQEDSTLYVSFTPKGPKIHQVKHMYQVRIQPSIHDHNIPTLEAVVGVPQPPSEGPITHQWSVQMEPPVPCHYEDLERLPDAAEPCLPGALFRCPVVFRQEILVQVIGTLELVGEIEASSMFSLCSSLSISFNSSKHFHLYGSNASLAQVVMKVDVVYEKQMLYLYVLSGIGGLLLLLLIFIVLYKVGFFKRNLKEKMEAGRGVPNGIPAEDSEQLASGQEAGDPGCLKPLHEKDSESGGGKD
UniProt P05107, 23-769 partner limits assumed: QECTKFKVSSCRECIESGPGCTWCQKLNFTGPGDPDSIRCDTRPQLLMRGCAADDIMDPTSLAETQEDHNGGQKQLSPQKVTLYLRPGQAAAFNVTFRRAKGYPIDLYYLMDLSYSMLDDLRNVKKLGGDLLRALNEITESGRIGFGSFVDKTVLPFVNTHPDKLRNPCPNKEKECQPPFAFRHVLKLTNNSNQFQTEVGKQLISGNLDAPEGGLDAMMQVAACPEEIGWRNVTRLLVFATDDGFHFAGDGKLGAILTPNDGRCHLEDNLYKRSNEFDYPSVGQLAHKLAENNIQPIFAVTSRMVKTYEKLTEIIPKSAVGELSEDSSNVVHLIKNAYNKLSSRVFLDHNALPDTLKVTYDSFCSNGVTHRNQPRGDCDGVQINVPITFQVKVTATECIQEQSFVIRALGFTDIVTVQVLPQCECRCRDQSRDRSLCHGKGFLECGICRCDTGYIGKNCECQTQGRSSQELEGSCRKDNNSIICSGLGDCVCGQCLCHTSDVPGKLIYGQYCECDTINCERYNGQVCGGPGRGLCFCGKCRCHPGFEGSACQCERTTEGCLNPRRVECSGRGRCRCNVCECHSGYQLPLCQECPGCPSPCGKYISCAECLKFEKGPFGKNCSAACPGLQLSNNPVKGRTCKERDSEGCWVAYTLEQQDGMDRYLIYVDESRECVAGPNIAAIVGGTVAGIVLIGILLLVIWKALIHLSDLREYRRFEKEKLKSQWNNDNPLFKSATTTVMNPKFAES

The compounds below were run against LFA-1 (CD18/CD11a) binding to ICAM-1 (Homo sapiens, UniProt P20701) (assay: LFA-1/Biotin-sICAM-1 AlphaScreen assay: inhibition of LFA-1 binding to ICAM-1). Settings: read-out: Alphascreen IC50, 37° C. 90 minutes, highest compound concentration 1 μM.
Description: Assay to Determine Inhibition of LFA-1 Binding to ICAM-1
This assay protocol is designed to study the direct antagonism, by a test compound, of the interaction of ICAM-1 with the Leukointegrin CD18/CD11a (LFA-1).
The LFA-1/Biotin-sICAM-1 molecular assay measures the ability of test compounds to inhibit binding of LFA-1 to Biotinylated-sICAM using AlphaScreen technology (Ref: Wilson, J, Rossi, C P, Carboni, S, Fremaux, C, Perrin, D, Soto, C, Kosco-Vilbois, M, and Scheer, A: A Homogeneous 384-Well High-Throughput Binding Assay for a TNF Receptor Using Alphascreen Technology. J Biomol Screen 2003; 8:522-532) that uses TS2/4(anti-LFA-1)-custom conjugated AlphaLisa acceptor beads and streptavidin-coated donor beads from PerkinElmer. The assay was performed in white OptiPlates-384 in a volume of 60 μL using assay buffer (Dulbecco's PBS containing calcium and magnesium, 2 mM MgCl2, 0.1 mM PMSF, 0.1% BSA, pH 7.1). To each well, Biotin-sICAM was added followed by purified LFA-1 (in buffer of 50 mM triethylamine, 150 mM NaCl, 1% beta octylglucoside, 2 mM MgCl2 neutralized to pH with 1M Tris-HCl, pH 7.5). For compound testing, compound was added in 5 uL to the above in 25 uL. LFA-1 and Biotin-sICAM-1 were used at concentrations that would yield a signal to background ratio of 8-10. The highest concentration of compound was 1 μM in 1% DMSO. Positive controls were wells without compound containing LFA-1, while blanks were wells without both compound and LFA-1. Plates were mixed and incubated at 37° C. for 90 minutes. This was followed by addition of 15 μL/well TS2/4-conjugated acceptor beads diluted in PBS containing 0.1% BSA for a final concentration of 10 μg/mL. The plates were mixed and incubated in the dark for 30 minutes at room temperature followed by addition of 15 μL/well streptavidin-coated donor beads diluted in PBS containing 0.1% BSA at a final concentration of 15 μg/mL. The plates were mixed and incubated in the dark for 60 minutes at room temperature and then read on an EnVision Multilabel Reader using AlphaScreen 384-well OptiPlate protocol.

IC50 [nM]	SMILES
0.88	Cn1cc(-c2ccc(C3(NC(=O)C4(NC(=O)c5cnc6n5[C@](C)(Cc5ccc(C#N)cc5)C(=O)N6c5cc(Cl)c(F)c(Cl)c5)CC4)CC3)nc2)cn1
0.62	C[C@@]1(Cc2ccc(C#N)cc2)C(=O)N(c2cc(Cl)c(F)c(Cl)c2)c2ncc(C(=O)NC3(C(=O)NC4(c5ccc(-c6ccc(CO)nc6)cn5)CC4)CC3)n21
1.8	C[C@@]1(Cc2ccc(OC(F)(F)F)cc2)C(=O)N(c2cc(Cl)c(F)c(Cl)c2)c2ncc(C(=O)NC3(C(=O)NC4(c5ncc(-c6ccc(CO)cc6)cn5)CC4)CC3)n21
1.5	Cc1ncc(-c2ccc(C3(NC(=O)C4(NC(=O)c5cnc6n5[C@](C)(Cc5ccc(C#N)cc5)C(=O)N6c5cc(Cl)c(F)c(Cl)c5)CC4)CC3)nc2)cn1
0.68	C[C@@]1(Cc2ccc(C#N)cc2)C(=O)N(c2cc(Cl)c(F)c(Cl)c2)c2ncc(C(=O)NC3(C(=O)NC4(c5ccc(-c6ccc(=O)[nH]c6)cn5)CC4)CC3)n21
1.1	C[C@@]1(Cc2ccc(OC(F)(F)F)cc2)C(=O)N(c2cc(Cl)c(F)c(Cl)c2)c2ncc(C(=O)NC3(C(=O)NC4(c5ccc(-c6cn[nH]c6)cn5)CC4)CC3)n21
1.3	C[C@H](NC(=O)c1cnc2n1[C@](C)(Cc1ccc(C#N)cc1)C(=O)N2c1cc(Cl)c(F)c(Cl)c1)C(=O)NC1(c2ccc(-c3ccc(CO)nc3)cn2)CC1
1.9	C[C@H](NC(=O)c1cnc2n1[C@](C)(Cc1ccc(C#N)cc1)C(=O)N2c1cc(Cl)c(F)c(Cl)c1)C(=O)NC1(c2ccc(-c3ccc(CO)cc3)cn2)CC1
1.2	C[C@@]1(Cc2ccc(OC(F)(F)F)cc2)C(=O)N(c2cc(Cl)c(F)c(Cl)c2)c2ncc(C(=O)NC3(C(=O)NC4(c5ccc(-c6ccc(CO)nc6)cn5)CC4)CC3)n21
1.3	Cn1cc(-c2ccc(C3(NC(=O)C4(NC(=O)c5cnc6n5[C@](C)(Cc5ccc(OC(F)(F)F)cc5)C(=O)N6c5cc(Cl)c(F)c(Cl)c5)CC4)CC3)nc2)cn1
0.77	Cc1nn(C)cc1-c1ccc(C2(NC(=O)C3(NC(=O)c4cnc5n4[C@](C)(Cc4ccc(C#N)cc4)C(=O)N5c4cc(Cl)c(F)c(Cl)c4)CC3)CC2)cn1
1.4	C[C@@]1(Cc2ccc(C#N)cc2)C(=O)N(c2cc(Cl)c(F)c(Cl)c2)c2ncc(C(=O)NC3(C(=O)NC4(c5ncc(-c6ccc(CO)nc6)cn5)CC4)CC3)n21
0.8	C[C@@]1(Cc2ccc(C#N)cc2)C(=O)N(c2cc(Cl)c(F)c(Cl)c2)c2ncc(C(=O)NC3(C(=O)NC4(c5ccc(-c6ccc(S(N)(=O)=O)cc6)cn5)CC4)CC3)n21
0.99	C[C@@]1(Cc2ccc(C#N)cc2)C(=O)N(c2cc(Cl)c(F)c(Cl)c2)c2ncc(C(=O)NC3(C(=O)NC4(c5ccc(-c6cccnc6)cn5)CC4)CC3)n21
0.61	C[C@@H](NC(=O)C1(NC(=O)c2cnc3n2[C@](C)(Cc2ccc(C#N)cc2)C(=O)N3c2cc(Cl)c(F)c(Cl)c2)CC1)c1ccc(-c2cn[nH]c2)cn1
0.97	C[C@@]1(Cc2ccc(C#N)cc2)C(=O)N(c2cc(Cl)c(F)c(Cl)c2)c2ncc(C(=O)NC3(C(=O)NC4(c5ccc(-c6ccc(CO)nc6)nc5)CC4)CC3)n21
0.83	C[C@@]1(Cc2ccc(C#N)cc2)C(=O)N(c2cc(Cl)c(F)c(Cl)c2)c2ncc(C(=O)NC3(C(=O)NC4(c5ccc(-c6ccc(C(N)=O)cc6)cn5)CC4)CC3)n21
0.51	Cc1nn(C)cc1-c1ccc([C@@H](C)NC(=O)C2(NC(=O)c3cnc4n3[C@](C)(Cc3ccc(C#N)cc3)C(=O)N4c3cc(Cl)c(F)c(Cl)c3)CC2)cn1

The next lines start with the compound.

SMILES	IC50 [nM]
Cc1nn(C)cc1-c1ccc(C2(NC(=O)[C@@H](NC(=O)c3cnc4n3[C@](C)(Cc3ccc(C#N)cc3)C(=O)N4c3cc(Cl)c(F)c(Cl)c3)[C@@H](C)O)CC2)cn1	1.2
C[C@H](NC(=O)c1cnc2n1[C@](C)(Cc1ccc(C#N)cc1)C(=O)N2c1cc(Cl)c(F)c(Cl)c1)C(=O)NC1(c2ccc(-c3cn[nH]c3)nn2)CC1	0.53
C[C@H](NC(=O)c1cnc2n1[C@](C)(Cc1ccc(C#N)cc1)C(=O)N2c1cc(Cl)c(F)c(Cl)c1)C(=O)NC1(c2ccc(-c3cnn(C)c3)nn2)CC1	1.2
C[C@H](NC(=O)c1cnc2n1[C@](C)(Cc1ccc(C#N)cc1)C(=O)N2c1cc(Cl)c(F)c(Cl)c1)C(=O)N[C@H](C)c1ccc(-c2ccc(CO)nc2)cn1	0.58
C[C@H](NC(=O)c1cnc2n1[C@](C)(Cc1ccc(OC(F)(F)F)cc1)C(=O)N2c1cc(Cl)c(F)c(Cl)c1)C(=O)NC1(c2ccc(-c3cn[nH]c3)nn2)CC1	0.77
C[C@H](NC(=O)c1cnc2n1[C@](C)(Cc1ccc(C#N)cc1)C(=O)N2c1cc(Cl)c(F)c(Cl)c1)C(=O)NC1(c2ccc(-c3ccc(CO)cc3)nn2)CC1	1.1
C[C@@H](O)[C@H](NC(=O)c1cnc2n1[C@](C)(Cc1ccc(OC(F)(F)F)cc1)C(=O)N2c1cc(Cl)c(F)c(Cl)c1)C(=O)NC1(c2ccc(-c3cnn(C)c3)cn2)CC1	1.2
Cn1cc(-c2ccc(C3(NC(=O)[C@H](CO)NC(=O)c4cnc5n4[C@](C)(Cc4ccc(OC(F)(F)F)cc4)C(=O)N5c4cc(Cl)c(F)c(Cl)c4)CC3)nc2)cn1	0.93
C[C@@H](O)[C@H](NC(=O)c1cnc2n1[C@](C)(Cc1ccc(OC(F)(F)F)cc1)C(=O)N2c1cc(Cl)c(F)c(Cl)c1)C(=O)NC1(c2ccc(-c3cnn(C)c3)nn2)CC1	1.4
C[C@@H](O)[C@H](NC(=O)c1cnc2n1[C@](C)(Cc1ccc(C#N)cc1)C(=O)N2c1cc(Cl)c(F)c(Cl)c1)C(=O)NC1(c2ccc(-c3cnn(C)c3)nn2)CC1	0.44
C[C@@]1(Cc2ccc(OC(F)(F)F)cc2)C(=O)N(c2cc(Cl)c(F)c(Cl)c2)c2ncc(C(=O)NC3(C(=O)NC4(c5ccc(-c6ccc(CO)nc6)nc5)CC4)CC3)n21	0.58
C[C@H](NC(=O)c1cnc2n1[C@](C)(Cc1ccc(OC(F)(F)F)cc1)C(=O)N2c1cc(Cl)c(F)c(Cl)c1)C(=O)N[C@H](C)c1ccc(-c2ccc(CO)nc2)cn1	0.86
C[C@H](NC(=O)c1cnc2n1[C@](C)(Cc1ccc(OC(F)(F)F)cc1)C(=O)N2c1cc(Cl)c(F)c(Cl)c1)C(=O)NC1(c2ccc(-c3ccc(CO)nc3)cn2)CC1	1.3
C[C@H](NC(=O)c1cnc2n1[C@](C)(Cc1ccc(OC(F)(F)F)cc1)C(=O)N2c1cc(Cl)c(F)c(Cl)c1)C(=O)NC1(c2ccc(-c3cnn(C)c3)cn2)CC1	2.9
C[C@@H](O)[C@H](NC(=O)c1cnc2n1[C@](C)(Cc1ccc(OC(F)(F)F)cc1)C(=O)N2c1cc(Cl)c(F)c(Cl)c1)C(=O)NC1(c2ccc(-c3cn[nH]c3)nn2)CC1	1.2
C[C@@]1(Cc2ccc(OC(F)(F)F)cc2)C(=O)N(c2cc(Cl)cc(Cl)c2)c2ncc(C(=O)NC3(C(=O)NC4(c5ccc(-c6ccc(=O)[nH]c6)cn5)CC4)CC3)n21	1.3
C[C@@H](O)[C@H](NC(=O)c1cnc2n1[C@](C)(Cc1ccc(C#N)cc1)C(=O)N2c1cc(Cl)c(F)c(Cl)c1)C(=O)NC1(c2ccc(-c3cn[nH]c3)nn2)CC1	0.38
Cn1cc(-c2ccc(C3(NC(=O)C4(NC(=O)c5cnc6n5[C@](C)(Cc5ccc(OC(F)(F)F)cc5)C(=O)N6c5cc(Cl)c(F)c(Cl)c5)CC4)CC3)nn2)cn1	1.5
